{"source": "patent US6541619B1", "about": "(Daewoong Pharmaceutical Co., Ltd., priority 1997, dated 2003)", "test_system": "CHO-K1 cells", "assay": "Cytotoxicity to CHO-K1 cells that do not express hEGF receptors (MTT)", "format": "cell-based", "conditions": "CHO-K1, serum-free media, 2 days", "method": "Cells were cultured on 96 well plates at 1×10^4 cells/ml for 1 day, and received serum-free media containing control and samples, and incubated for additional 2 days. Survival rate of the cells was measured with MTT, in an analogous manner as in Example 15(see: Table 4)."}
{"substance": "hEGF-angiogenin: fusion protein of EGF-angiogenin expressed from pTE4083, SEQ ID No:19", "values": [{"measurement": "IC50", "value": "> 100", "unit": "nM"}]}
